The target in the assay is Tyrosine-protein kinase BTK (Homo sapiens, UniProt Q06187). Briefly: […] After incubating at room temperature for 60 min, the reaction was terminated by adding 45 μL of 35 mM EDTA to each sample. The reaction mixture was analyzed on the Caliper LABCHIP® 3000 (Caliper, Hopkinton, Mass.) by electrophoretic separation of the fluorescent substrate and phosphorylated product. Particulars: pH 7.4; 25 °C.

Sequences of proteins named here, by UniProt entry; tags and fusion partners are left off. A change or cut given only in a name is not applied to a line headed by its entry.
UniProt Q06187: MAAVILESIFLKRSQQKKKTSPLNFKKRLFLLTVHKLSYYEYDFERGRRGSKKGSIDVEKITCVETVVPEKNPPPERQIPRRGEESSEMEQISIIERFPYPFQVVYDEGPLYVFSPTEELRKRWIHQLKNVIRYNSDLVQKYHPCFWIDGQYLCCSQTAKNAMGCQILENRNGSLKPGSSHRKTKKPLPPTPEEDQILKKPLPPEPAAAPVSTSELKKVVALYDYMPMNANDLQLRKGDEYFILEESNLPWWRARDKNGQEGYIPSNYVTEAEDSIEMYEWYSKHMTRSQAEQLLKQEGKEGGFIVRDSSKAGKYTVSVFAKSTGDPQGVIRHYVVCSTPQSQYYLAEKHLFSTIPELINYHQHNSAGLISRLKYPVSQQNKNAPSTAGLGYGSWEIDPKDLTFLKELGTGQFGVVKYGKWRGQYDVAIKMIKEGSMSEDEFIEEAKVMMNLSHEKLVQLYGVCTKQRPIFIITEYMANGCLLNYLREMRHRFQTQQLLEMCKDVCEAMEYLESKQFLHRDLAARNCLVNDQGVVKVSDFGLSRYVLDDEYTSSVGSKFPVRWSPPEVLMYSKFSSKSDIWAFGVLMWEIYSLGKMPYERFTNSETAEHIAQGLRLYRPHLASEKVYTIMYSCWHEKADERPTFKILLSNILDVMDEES

“And” between values parts separate entries of the source, which are not always exact repeats. Identical values can stand only once.

`Cc1c(-c2c(Cl)cc(C(N)=O)c3[nH]c4cc(C(C)(C)O)ccc4c23)cccc1-n1c(=O)c2cccc(F)c2n(C)c1=O` (single isomer, unassigned) [US9334290, 2]: the half-inhibitory concentration (IC50) is 2.1 nM and 1.1 nM.

One may read the IC50 as the concentration that gives 50% inhibition.

These data come from BindingDB's records for patent US9334290 (Bristol Myers Squibb, 2016).
